The experiment concerns the target T1, human c-Met protein (Homo sapiens, UniProt P08581).
T1 sequence (P08581 25-1390): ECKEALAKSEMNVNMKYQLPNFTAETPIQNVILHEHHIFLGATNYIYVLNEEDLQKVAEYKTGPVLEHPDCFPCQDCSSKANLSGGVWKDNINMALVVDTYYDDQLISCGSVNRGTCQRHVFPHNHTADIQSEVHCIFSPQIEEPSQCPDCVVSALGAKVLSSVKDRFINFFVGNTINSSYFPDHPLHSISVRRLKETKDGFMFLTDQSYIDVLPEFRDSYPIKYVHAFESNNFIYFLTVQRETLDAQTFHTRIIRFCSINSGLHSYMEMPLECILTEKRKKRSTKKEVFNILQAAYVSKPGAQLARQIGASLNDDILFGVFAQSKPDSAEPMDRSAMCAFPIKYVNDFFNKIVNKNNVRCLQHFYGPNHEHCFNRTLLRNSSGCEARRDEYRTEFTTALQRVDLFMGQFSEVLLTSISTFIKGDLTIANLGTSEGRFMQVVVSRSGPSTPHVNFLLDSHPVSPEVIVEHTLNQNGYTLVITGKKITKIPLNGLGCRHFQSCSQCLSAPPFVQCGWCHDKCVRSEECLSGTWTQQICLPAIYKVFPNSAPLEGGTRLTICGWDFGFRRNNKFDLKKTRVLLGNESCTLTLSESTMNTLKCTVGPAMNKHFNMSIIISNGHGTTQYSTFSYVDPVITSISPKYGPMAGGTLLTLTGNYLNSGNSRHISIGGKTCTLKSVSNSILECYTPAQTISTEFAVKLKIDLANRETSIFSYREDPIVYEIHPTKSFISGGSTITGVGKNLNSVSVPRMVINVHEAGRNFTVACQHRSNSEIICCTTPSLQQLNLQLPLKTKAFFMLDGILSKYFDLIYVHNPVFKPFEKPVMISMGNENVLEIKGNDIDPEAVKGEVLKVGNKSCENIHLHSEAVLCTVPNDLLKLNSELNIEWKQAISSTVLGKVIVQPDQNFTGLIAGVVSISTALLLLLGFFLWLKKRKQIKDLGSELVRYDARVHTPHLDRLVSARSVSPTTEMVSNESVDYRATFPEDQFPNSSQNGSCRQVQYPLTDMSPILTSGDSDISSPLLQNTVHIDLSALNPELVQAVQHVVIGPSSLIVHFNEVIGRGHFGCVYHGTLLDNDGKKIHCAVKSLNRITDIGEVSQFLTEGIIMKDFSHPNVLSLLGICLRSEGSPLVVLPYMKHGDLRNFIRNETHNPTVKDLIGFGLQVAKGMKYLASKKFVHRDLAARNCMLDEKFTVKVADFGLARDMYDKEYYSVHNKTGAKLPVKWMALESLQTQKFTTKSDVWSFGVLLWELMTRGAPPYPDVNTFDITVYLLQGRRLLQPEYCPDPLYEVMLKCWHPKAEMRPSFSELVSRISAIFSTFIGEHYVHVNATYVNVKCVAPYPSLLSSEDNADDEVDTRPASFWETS
The experiment can be described thus: Biacore binding affinity to c-Met antigen. To be noted: antibody immobilized on CM5 chip, human c-Met 0.39 nM to 100 nM. The procedure: Affinities of the 4 types of antibodies against c-Met antigen prepared in Example 7 were measured by using a Biacore (GE healthcare). About 80 to 110 RU of each antibody was immobilized on a CM5 chip, 9 different concentrations ranging from 0.39 nM to 100 nM of human c-Met protein, as an antigen, were injected at a rate of 30 ul/min to obtain kon values and koff values as shown in Table 3. Then, KD values were calculated based thereon.
A general note: SPR reads the build-up and loss of mass on a sensor chip optically.

B1: huAbF46: humanized anti-c-Met antibody from chAbF46; combination of the H4-heavy chain and the H4-light chain (antibody)
heavy: EVQLVESGGGLVQPGGSLRLSCAASGFTFTDYYMSWVRQAPGKGLEWLGFIRNKANGYTTEYSASVKGRFTISRDNSKNTLYLQMNSLRAEDTAVYYCARDNWFAYWGQGTLVTVSSASTKGPSVFPLAPSSKSTSGGTAALGCLVKDYFPEPVTVSWNSGALTSGVHTFPAVLQSSGLYSLSSVVTVPSSSLGTQTYICNVNHKPSNTKVDKKV[left out - human IgG1 Fc]
light: DIQMTQSPSSLSASVGDRVTITCKSSQSLLASGNQNNYLAWHQQKPGKAPKMLIIWASTRVSGVPSRFSGSGSGTDFTLTISSLQPEDFATYYCQQSYSAPLTFGQGTKVEIKRTVAAPSVFIFPPSDEQLKSGTASVVCLLNNFYPREAKVQWKVDNALQSGNSQESVTEQDSKDSTYSLSSTLTLSKADYEKHKVYACEVTHQGLSSPVTKSFNRGE
Take B1: the koff – broadly, a measure of how fast the partners let go of each other – amounted to 0.000723 s⁻¹ and the kon (in general, a measure of how fast the partners come together) worked out at 329000 M⁻¹ s⁻¹.

Values taken from patent US9717715B2, “Method of combination therapy using an anti-C-Met antibody” (Samsung Electronics Co., Ltd., priority 2013, dated 2017).
